From PMC5741089 (Current protocols in pharmacology, 2017)

Chains of the proteins cited; added tags and fusions are not shown.
UniProt Q01959, whole entry: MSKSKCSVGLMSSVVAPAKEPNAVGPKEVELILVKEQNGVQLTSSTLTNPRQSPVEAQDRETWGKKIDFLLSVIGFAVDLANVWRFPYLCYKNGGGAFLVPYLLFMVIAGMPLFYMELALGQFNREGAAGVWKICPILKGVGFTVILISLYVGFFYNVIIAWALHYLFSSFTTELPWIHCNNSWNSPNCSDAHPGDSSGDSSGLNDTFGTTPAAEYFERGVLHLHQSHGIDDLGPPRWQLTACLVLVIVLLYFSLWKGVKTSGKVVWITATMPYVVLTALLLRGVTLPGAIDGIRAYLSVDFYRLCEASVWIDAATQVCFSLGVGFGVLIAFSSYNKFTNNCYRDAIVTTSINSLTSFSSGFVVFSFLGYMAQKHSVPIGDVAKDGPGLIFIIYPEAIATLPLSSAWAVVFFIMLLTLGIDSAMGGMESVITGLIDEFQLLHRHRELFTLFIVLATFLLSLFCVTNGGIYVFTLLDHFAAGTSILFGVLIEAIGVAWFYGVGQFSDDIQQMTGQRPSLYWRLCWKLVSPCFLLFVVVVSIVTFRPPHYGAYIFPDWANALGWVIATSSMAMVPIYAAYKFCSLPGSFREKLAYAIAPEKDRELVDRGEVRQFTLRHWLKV

Target: hDAT (Homo sapiens, UniProt Q01959)
Settings: 10 min, 37°C, pH 7.4; cells preloaded with 25 nM [3H]-DA

## CC(N)Cc1ccccc1 (stereo not shown) [amphetamine]
  % efflux at 20 μM: 57%
